# According to patent publication US9802996B2, “Glycosylated polypeptide and drug composition containing said polypeptide” (Glytech, Inc., priority 2011, dated 2017):
# Amino acid sequences for entries named in this document (tags omitted). A change or cut given only in a name is not applied to a line headed by its entry.
# UniProt P31391: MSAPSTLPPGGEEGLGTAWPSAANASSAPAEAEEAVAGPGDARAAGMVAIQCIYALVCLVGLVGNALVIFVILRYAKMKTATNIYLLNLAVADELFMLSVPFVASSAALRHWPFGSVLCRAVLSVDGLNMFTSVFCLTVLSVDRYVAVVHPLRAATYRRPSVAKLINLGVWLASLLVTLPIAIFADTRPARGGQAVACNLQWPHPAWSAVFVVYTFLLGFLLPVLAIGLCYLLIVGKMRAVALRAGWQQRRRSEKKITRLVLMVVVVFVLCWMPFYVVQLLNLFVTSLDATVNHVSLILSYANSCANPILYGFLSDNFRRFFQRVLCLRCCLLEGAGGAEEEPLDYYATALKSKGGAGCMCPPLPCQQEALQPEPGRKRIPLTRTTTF
# UniProt P30874: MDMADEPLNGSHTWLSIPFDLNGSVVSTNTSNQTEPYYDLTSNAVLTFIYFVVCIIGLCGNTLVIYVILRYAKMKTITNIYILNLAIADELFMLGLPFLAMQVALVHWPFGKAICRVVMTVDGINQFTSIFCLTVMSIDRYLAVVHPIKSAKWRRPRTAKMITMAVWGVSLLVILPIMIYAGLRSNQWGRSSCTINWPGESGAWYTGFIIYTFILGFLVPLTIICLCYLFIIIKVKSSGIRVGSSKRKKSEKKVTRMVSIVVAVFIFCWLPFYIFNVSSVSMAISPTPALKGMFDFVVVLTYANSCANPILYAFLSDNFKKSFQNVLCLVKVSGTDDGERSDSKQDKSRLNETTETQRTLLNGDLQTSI
# UniProt P32745: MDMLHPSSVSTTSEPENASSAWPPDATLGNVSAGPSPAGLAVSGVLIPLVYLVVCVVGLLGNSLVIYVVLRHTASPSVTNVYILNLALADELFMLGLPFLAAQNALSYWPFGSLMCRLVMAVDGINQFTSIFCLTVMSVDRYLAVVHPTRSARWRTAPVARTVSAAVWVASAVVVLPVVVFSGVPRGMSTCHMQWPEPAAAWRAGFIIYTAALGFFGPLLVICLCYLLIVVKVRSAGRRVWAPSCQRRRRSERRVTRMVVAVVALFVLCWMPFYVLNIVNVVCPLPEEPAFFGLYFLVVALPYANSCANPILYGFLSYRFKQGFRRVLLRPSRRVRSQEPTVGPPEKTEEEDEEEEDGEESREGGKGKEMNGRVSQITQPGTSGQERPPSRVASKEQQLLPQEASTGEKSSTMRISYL
# pKi: −log10 of the molar value. Where “and” joins values, the source holds several entries; their conditions need not be identical. Identical values can stand only once. Like-named read-outs stand apart in the source and are kept apart here.
# How the values were obtained:
# [1] = molecular target: SSTR4 (Homo sapiens, UniProt P31391); assay: Competitive binding assay with [125I]Tyr11-Somatostatin 14, SSTR4
# [2] = molecular target: SSTR2 (Homo sapiens, UniProt P30874); assay: Competitive binding assay with [125I]Tyr11-Somatostatin 14, SSTR2; conditions: read-out: Ki value against SSTR2; Example 69-2, Table 3B
# [3] = molecular target: SSTR3 (Homo sapiens, UniProt P32745); assay: Competitive binding assay with [125I]Tyr11-Somatostatin 14, SSTR3; conditions: read-out: Ki value against SSTR3; Example 69-2, Table 3B
# [4] = Pharmacokinetics test with rats (intravenous and subcutaneous administration); conditions: for AUC increase compared to the non-glycosylated form SRIF28 / t1/2 extension compared to the non-glycosylated form SRIF28 / AUC increase compared to the non-glycosylated form SRIF14 / t1/2 extension compared to the non-glycosylated form SRIF14: administered intravenously; for MRT / T1/2: Tables 5B-5F (unit not given; Table 5A: min); for bioavailability (BA): subcutaneous vs intravenous AUC; for increase in half-life in blood: as measured in the method of Example 70
# [5] = read-out: Ki value against SSTR4; Example 69-2, Table 3B
# [6] = Example 69-2, Table 3B; read-out: Ki value against SSTR4
# [7] = rats, intravenous administration, Table 5A
# [8] = rats, subcutaneous administration, Table 5A
# [9] = rats, intravenous administration
substance,measurement,setting,value
2C(disialo)-R-K-SRIF14 [Example 50],pKi,[1]; [5],6.76 to 8.86
same,pKi,[2],8.18 to 10.27
same,pKi,[3],7.86 to 9.80
3C(disialo)-R-K-SRIF14 [Example 51],"Ki value against SSTR4, folds that of SRIF14",[1]; Example 69-2,≥ 46 folds
29C(disialo)-SRIF28 [Example 13],AUC increase compared to the non-glycosylated form SRIF28,[4]; rats,8-23 folds
same,t1/2 extension compared to the non-glycosylated form SRIF28,[4]; rats,13-18 folds
A15C(disialo)-SRIF28 [Example 7],pKi,[1]; [6],6.76 to 8.86
same,pKi,[2],8.18 to 10.27
same,pKi,[3],7.86 to 9.80
Azido-S1C(disialo)-SRIF28 [Example 48],pKi,[1]; [6],6.76 to 8.86
same,pKi,[2],8.18 to 10.27
same,pKi,[3],7.86 to 9.80
Biotin-PEG linker-S1C(disialo)-SRIF28 [Example 47],pKi,[1]; [6],6.76 to 8.86
same,pKi,[2],8.18 to 10.27
same,pKi,[3],7.86 to 9.80
Biotin-S1C(disialo)-SRIF28 [Example 46],pKi,[1]; [6],6.76 to 8.86
same,pKi,[2],8.18 to 10.27
same,pKi,[3],7.86 to 9.80
C(disialo(aminoethylamide))/S1C(disialo)-SRIF28 [Example 67],AUC increase compared to the non-glycosylated form SRIF28,[4]; rats,6-12 folds
same,t1/2 extension compared to the non-glycosylated form SRIF28,[4]; rats,6-21 folds
C(disialo)-C12 linker-SRIF14 [Example 19],AUC increase compared to the non-glycosylated form SRIF14,[4]; rats,14-30 folds
same,t1/2 extension compared to the non-glycosylated form SRIF14,[4]; rats,22-33 folds
C(disialo)-K-SRIF14 [Example 42],pKi,[1]; [5],6.76 to 8.86
same,pKi,[2],8.18 to 10.27
same,pKi,[3],7.86 to 9.80
same,AUC increase compared to the non-glycosylated form SRIF14,[4]; rats,44-55 folds
same,t1/2 extension compared to the non-glycosylated form SRIF14,[4]; rats,33-38 folds
C(disialo)-R-K-SRIF14 [Example 18],AUC increase compared to the non-glycosylated form SRIF14,[4]; rats,44-55 folds and 55 folds
same,t1/2 extension compared to the non-glycosylated form SRIF14,[4]; rats,33-38 folds and 38 folds
C(disialo)-SRIF14 [Example 17],AUC increase compared to the non-glycosylated form SRIF14,[4]; rats,44-55 folds
same,t1/2 extension compared to the non-glycosylated form SRIF14,[4]; rats,33-38 folds
C(disialo)-SRIF28 [Example 36],pKi,[1]; [6],6.76 to 8.86
same,pKi,[2],8.18 to 10.27
same,pKi,[3],7.86 to 9.80
E12C(disialo)-SRIF28 [Example 4],AUC increase compared to the non-glycosylated form SRIF28,[4]; rats,8-23 folds
same,t1/2 extension compared to the non-glycosylated form SRIF28,[4]; rats,13-18 folds
G16C(disialo)-SRIF28 [Example 8],pKi,[1]; [6],6.76 to 8.86
same,pKi,[2],8.18 to 10.27
same,pKi,[3],7.86 to 9.80
K14C(disialo)-SRIF28 [Example 6],AUC increase compared to the non-glycosylated form SRIF28,[4]; rats,8-23 folds
same,t1/2 extension compared to the non-glycosylated form SRIF28,[4]; rats,13-18 folds
same,"AUC for subcutaneous administration, folds of S1C(disialo)-SRIF28",[4]; rats,1.8-3.1 folds
K18C(disialo)-SRIF28 [Example 9],pKi,[1]; [6],6.76 to 8.86
same,pKi,[2],8.18 to 10.27
same,pKi,[3],7.86 to 9.80
N5C(disialo)-SRIF28 [Example 2],AUC,[4]; [7],4421 ± 1366 nM·min
same,C0,[4]; [7],496 ± 312 nM
same,AUC,[4]; [8],2392 ± 443 nM·min
same,Cmax,[4]; [8],0.0324 ± 0.00487 µM
N19C(diMan)-SRIF28 [Example 54],pKi,[1]; [6],6.76 to 8.86
same,pKi,[2],8.18 to 10.27
same,pKi,[3],7.86 to 9.80
N19C(disialo)-SRIF28 [Example 10],AUC increase compared to the non-glycosylated form SRIF28,[4]; rats,8-23 folds
same,t1/2 extension compared to the non-glycosylated form SRIF28,[4]; rats,13-18 folds
R11C(disialo)-SRIF28 [Example 37],pKi,[1]; [6],6.76 to 8.86
same,pKi,[2],8.18 to 10.27
same,pKi,[3],7.86 to 9.80
R13C(disialo)-SRIF28 [Example 5],AUC increase compared to the non-glycosylated form SRIF28,[4]; rats,8-23 folds
same,t1/2 extension compared to the non-glycosylated form SRIF28,[4]; rats,13-18 folds
same,"AUC for subcutaneous administration, folds of S1C(disialo)-SRIF28",[4]; rats,1.8-3.1 folds
S1-2C(disialo(Bn))-SRIF28 [Example 64],pKi,[1]; [5],6.76 to 8.86
same,pKi,[2],8.18 to 10.27
same,pKi,[3],7.86 to 9.80
same,AUC increase compared to the non-glycosylated form SRIF28,[4]; rats,6-12 folds
same,t1/2 extension compared to the non-glycosylated form SRIF28,[4]; rats,6-21 folds
S1-2C(disialo(amide))-SRIF28 [Example 63],pKi,[1]; [5],6.76 to 8.86
same,pKi,[2],8.18 to 10.27
same,pKi,[3],7.86 to 9.80
same,AUC increase compared to the non-glycosylated form SRIF28,[4]; rats,6-12 folds
same,t1/2 extension compared to the non-glycosylated form SRIF28,[4]; rats,6-21 folds
S1-2C(disialo)-SRIF28 [Example 20],AUC increase compared to the non-glycosylated form SRIF28,[4]; rats,12 folds and 6-12 folds
same,AUC,[4]; [7],7306 ± 625 nM·min
same,C0,[4]; [7],1382 ± 321 nM
same,MRT,[4]; [9],23.0
same,T1/2,[4]; [9],28.2
same,AUC,[4]; [8],4046 ± 248 nM·min
same,Cmax,[4]; [8],0.0463 ± 0.00975 µM
same,MRT,"[4]; rats, subcutaneous administration",65.3
same,bioavailability (BA),[4]; rats,55%
S1-3C(disialo)-SRIF28 [Example 24],AUC increase compared to the non-glycosylated form SRIF28,[4]; rats,12 folds
same,t1/2 extension compared to the non-glycosylated form SRIF28,[4]; rats,30 folds
same,AUC,[4]; [7],5660 ± 1354 nM·min
same,C0,[4]; [7],1061 ± 209 nM
same,AUC,"[4]; rats, intravenous administration, Tables 5B-5F (unit not given; Table 5A: min · nM)",5834
same,T1/2,[4]; [9],39.5
same,C0,"[4]; rats, intravenous administration, Tables 5B-5F (unit not given; Table 5A: nM)",1083
same,AUC,[4]; [8],3884 ± 543 nM·min
same,Cmax,[4]; [8],0.0275 ± 0.0108 µM
same,bioavailability (BA),[4]; rats,69%
S1-4C(disialo)-SRIF28 [Example 68],pKi,[1]; [5],6.76 to 8.86
same,pKi,[2],8.18 to 10.27
same,pKi,[3],7.86 to 9.80
S1C(Asn(disialo))-SRIF28 [Example 65],pKi,[1]; [6],6.76 to 8.86
same,pKi,[2],8.18 to 10.27
same,pKi,[3],7.86 to 9.80
S1C(GlcNAc)-SRIF28 [Example 55],pKi,[1]; [5],6.76 to 8.86
same,pKi,[2],8.18 to 10.27
same,pKi,[3],7.86 to 9.80
S1C(asialo)-SRIF28 [Example 27],pKi,[1]; [5],6.76 to 8.86
same,pKi,[2],8.18 to 10.27
same,pKi,[3],7.86 to 9.80
S1C(diGlcNAc)-SRIF28 [Example 52],pKi,[1]; [5],6.76 to 8.86
same,pKi,[2],8.18 to 10.27
same,pKi,[3],7.86 to 9.80
S1C(diMan)-SRIF28 [Example 53],pKi,[1]; [5],6.76 to 8.86
same,pKi,[2],8.18 to 10.27
same,pKi,[3],7.86 to 9.80
S1C(disialo (hexadecylamide))-SRIF28 [Example 62],pKi,[1]; [6],6.76 to 8.86
same,pKi,[2],8.18 to 10.27
same,pKi,[3],7.86 to 9.80
S1C(disialo(Bn))-SRIF28 [Example 61],pKi,[1]; [5],6.76 to 8.86
same,pKi,[2],8.18 to 10.27
same,pKi,[3],7.86 to 9.80
same,AUC increase compared to the non-glycosylated form SRIF28,[4]; rats,7-12 folds
same,t1/2 extension compared to the non-glycosylated form SRIF28,[4]; rats,11-14 folds
S1C(disialo)-D-Trp22-SRIF28 [Example 15],AUC increase compared to the non-glycosylated form SRIF28,[4]; rats,8-23 folds
same,t1/2 extension compared to the non-glycosylated form SRIF28,[4]; rats,13-18 folds
S1C(disialo)-SRIF28-amide [Example 44],pKi,[1]; [6],6.76 to 8.86
same,pKi,[2],8.18 to 10.27
same,pKi,[3],7.86 to 9.80
S1C(disialo)•E12C(disialo)-SRIF28 [Example 49],pKi,[1]; [6],6.76 to 8.86
same,pKi,[2],8.18 to 10.27
same,pKi,[3],7.86 to 9.80
S1C(disialo)•N5C(disialo)-SRIF28 [Example 21],increase in half-life in blood,[4],≥ 25 folds
same,AUC,[4]; [7],4099 ± 634 nM·min
same,C0,[4]; [7],558 ± 248 nM
same,"AUC, intravenous administration","[4]; rats, intravenous, 40 nmol/kg",4029 to 4465 nM·min
same,"AUC for subcutaneous administration, folds of S1C(disialo)-SRIF28",[4]; rats,1.8-3.1 folds
same,AUC,[4]; [8],3344 ± 663 nM·min
same,Cmax,[4]; [8],0.0355 ± 0.00638 µM
same,bioavailability (BA),[4]; rats,77-85%
S1C(disialo)•N5C(disialo)•A9C(disialo)-SRIF28 [Example 25],increase in half-life in blood,[4],≥ 30 folds
same,AUC,[4]; [7],4402 ± 999 nM·min
same,C0,[4]; [7],938 ± 145 nM
same,"AUC for subcutaneous administration, folds of S1C(disialo)-SRIF28",[4]; rats,1.8-3.1 folds
same,AUC,[4]; [8],4015 ± 944 nM·min
same,Cmax,[4]; [8],0.0248 ± 0.00903 µM
same,bioavailability (BA),[4]; rats,91%
S1C(tetrasialo)-SRIF28 [Example 58],pKi,[1]; [6],6.76 to 8.86
same,pKi,[2],8.18 to 10.27
same,pKi,[3],7.86 to 9.80
S1N(disialo)•N19C(diMan)-SRIF28 [Example 66],pKi,[1]; [6],6.76 to 8.86
same,pKi,[2],8.18 to 10.27
same,pKi,[3],7.86 to 9.80
S27C(disialo)-SRIF28 [Example 41],pKi,[1]; [6],6.76 to 8.86
same,pKi,[2],8.18 to 10.27
same,pKi,[3],7.86 to 9.80
